Measurements: patent US5714347A (priority 1995, dated 1998)

Columns and labels:
carboxypeptidase B = assay: pI shift assay (isoelectric focusing after carboxypeptidase B) for intact carboxyl terminal glycine dipeptide
Excerpt: Previous work has shown that the carboxyl terminal glycine dipeptide of ubiquitin is acutely sensitive to cleavage by trypsin-like activities (Haas, A. L., et al., J. Biol. Chem. 260:4694-4703, 1985; Wilkinson, K. D. and Audhya, T. K., J. Biol. Chem. 256:9235-9241, 1981). […] The specificity of carboxypeptidase B for lysine and arginine precludes a similar pI shift for intact ubiquitin in which R74 is masked by the glycine dipeptide (Haas, A. L., et al., supra, 1985).

[1] = concentrations higher than 50 μM
[2] = system: rabbit reticulocyte ubiquitin activating enzyme (E1); type: biochemical
Description: The incorporation of ^32 PPi into ATP was measured by adsorbing the resulting ^32 P-labeled ATP onto charcoal and counting the bound radioactivity by Cerenkov radiation (Haas, A. L. and Rose, I. A., supra, 1982). Nonspecifically-bound ^32 PPi was corrected by subtracting radioactivity in control incubations conducted in the absence of added E1 (Haas, A. L. and Rose, I. A., supra, 1982).
Since these measurements were conducted in the absence of added AMP, the kinetic constants reflect step 3 of the E1 reaction involving formation of the final ternary complex (Haas, A. L. and Rose, I. A. J. Biol. Chem., .supra, 1982).

Substance: ubiquitin cross-reactive protein [UCRP]
- pI (carboxypeptidase B; before carboxypeptidase treatment): 6.7
- pI following successive incubation with carboxypeptidase A then carboxypeptidase B (carboxypeptidase B; control experiment): 5.4
- pI shift upon incubation with carboxypeptidase B (carboxypeptidase B; isoelectric focusing): failed to show a pI shift
- solubility [1]: Insolubility
- kcat [2]: 0.026 s^-1 and 0.026
- kcat fold lower than ubiquitin [2]: 370 fold

Values joined by “and” are separate entries in the source; they are usually repeats but may differ in a detail not shown here. Equal entries are not always repeated.
